A short description of data set [1]: Formation of ion pair in aqueous phase: solubility / appearance of solutions. Format: physicochemical. The following applies: after mixing active principle and acylamino acid solutions. The text has this:
Two aqueous solutions are used. The first contains calcitonin. Due to the fact that the calcitonin is hydrophilic, the solution is clear. […] This second solution has a milky white appearance.
The obtained complex, calcitonin oleyl methyl glycine, is therefore amphiphilic.
Two aqueous solutions are used. The first contains lidocaine dispersed in the aqueous solution. […] This second solution has a milky white appearance.
The obtained complex, lidocaine oleyl glycine, is therefore amphiphilic.
A solution of NaOH in the quantity required for causing precipitation of all of the polymyxin E by deplacement of the sulphate salt is added to a solution of polymyxin E sulphate. Polymyxin E, also known as colistin, thereby goes back to its non-salified, basic structure. The resulting solution, solution B, is thus an aqueous phase with a precipitate of polymyxin E.
The polymyxin is thus resolubilized in the form of an amphiphilic complex, polymyxin E linoleyl glycine.

How the values of data set [2] were obtained:
An in vitro diffusion study is carried out with the aim of testing how well polymyxin E passes through a synthetic membrane. This membrane, of nylon type, is impregnated with lipid substances, in order to simulate diffusion through the intestinal lipid membrane. This study compares the performances of polymyxin E in the form of an ion pairing with an acylamino acid (oleyl methyl glycine) and in sulphate salified form.
The in vitro permeation study is carried out using Frantz cells. These cells have a donor compartment, in which a formulation containing polymyxin E in ion pair form or a polymyxin E sulphate solution is deposited, and a receptor compartment containing demineralised water. […] The two compartments are separated by the synthetic membrane.
The measurement of the quantity of polymyxin E which diffuses through the membrane is carried out by UV after: 1 hour, 2.5 hours, 4 hours, 6 hours and finally 7 hours.
The table below relates to a quantity of polymyxin E which diffused over the period of time; the values shown are cumulative values.

With polymyxin E linoleyl glycine, the “appearance of aqueous solution of the complex after mixing the two solutions” value (“appearance” below) in data set [1] is “single clear phase”.
With “polymyxin E oleyl methyl glycine [AIP of polymyxin E-oleyl methyl glycine]”, the “diffusion rate through lipid synthetic membrane relative to sulphate-salified form” value in data set [2] stood at 2 times.
Turning to lidocaine oleyl glycine, in data set [1], the “appearance” value is on record as “clear solution having a single phase”.
As to calcitonin oleyl methyl glycine, in data set [1], the “appearance” value was “clear solution having a single phase”.

The record behind these values is patent US20050069513A1, “Amphiphilic compounds for pharmaceutical or cosmetic use” (Physica S.A.R.L., priority 2001, published 2005).
